Data published in article PMC3196593 (Journal of medicinal chemistry, 2011).

System: HL-60 cells
Assay: Cytotoxicity in combination with doxorubicin
Type: cell-based, human
Conditions: 1 μM of PAD inhibitor

N=C(CCl)NCCC[C@H](NC(=O)c1ccccc1)C(N)=O.O=C(O)C(F)(F)F [Compound 1, Cl-amidine]
decrease in the EC50 for doxorubicin: ~ 2 fold
